What was measured:
[1] = system: CN34-BrM2 cells; assay: In vitro BBB transmigration assay, CN34-BrM2 cells; format: cell-based, human; details: cetuximab added to the media, FIG. 3C
Text: To test the first aspect of this hypothesis, we focused on COX-2 and EGFR ligands, which are present both in the BrMS and the LMS, and were previously implicated in extravasation of breast cancer cells into the lungs^14. We used an in vitro BBB model that is based on human primary endothelial cells and astrocytes, plated on opposite sides of a porous membrane in a tissue culture insert (FIG. 3A)^20. After several days in culture, the endothelial monolayer in the upper side of the membrane differentiated into a tight barrier that resembles a BBB, as determined by its lack of permeability to albumin (FIG. 3B). Cancer cells in suspension were placed in the upper chamber of the inserts, and the BBB transmigration capacity of these cells was determined based on the proportion that migrated into the lower chamber.
Primary human umbilical vein endothelial cells (ScienCell) were co-cultured with human primary astrocytes (HA, ScienCell), on opposite sides of a polylysin-treated, gelatin-coated tissue culture trans-well insert for three days as previously described^20. Briefly, 3 microm pore PET tissue culture inserts (Fisher) were treated with polylysine (1 microg/ml, Millipore) overnight, washed four times, and coated with 0.2% gelatin (Sigma) for a minimum of 30 min. […] Medium from the bottom chamber was collected, and absorbance was measured at 620 nm. […]

[2] = system: CN34-BrM2 cells; assay: Brain metastasis in mice after intracardiac inoculation of CN34-BrM2 cells; format: in vivo; details: mice injected with CN34-BrM2c cells, pre-treated with cetuximab, biweekly i.p. 1 mg; versus vehicle; FIG. 3E
Protocol: (§1) A cell suspension containing 10^5 CN34 breast cancer cells in a volume of 100 microl was injected in the left cardiac ventricle of anesthetized 6-7 week old Cr:NIH-bg-nu-Xid mice. A cell suspension of 10^4 MDA-MB-231 breast cancer cells in a volume of 100 microl was injected in the left cardiac ventricle of anesthetized 6-7 week old athymic mice. Tumor development was monitored by weekly bioluminescence imaging using the IVIS-200 imaging system from Xenogen as previously described^9. Brain metastatic lesions were confirmed by magnetic resonance imaging (MRI), and histological analysis upon necropsy. Brain lesions were localized by ex vivo bioluminescence imaging, and resected under sterile conditions. Half of the tissue was fixed with 4% paraformaldehyde (PFA), and processed for histological analysis. The other half was minced and placed in culture medium containing a 1:1 mixture of Dulbecco's modified Eagle's (DME) medium/Ham's F12 supplemented with 0.125% collagenase III, 0.1% hyaluronidase. Samples were incubated at room temperature for 4-5 h, with gentle rocking. After collagenase treatment, cells were briefly centrifuged, resuspended in 0.25% trypsin, and incubated for an additional 15 min in a 37° C. water bath. Cells were resuspended in culture medium and allowed to grow to confluence on a 10 cm dish. GFP^+ cells were sorted for further in vivo passage. […]

[3] = system: MDA231-BrM2 cells; assay: Brain metastasis in mice after intracardiac inoculation of MDA231-BrM2 cells; format: in vivo; details: mice injected with MDA231-BrM2a cells, pre-treated with cetuximab, biweekly i.p. 1 mg; versus vehicle; FIG. 3E
Protocol: as §1

## cetuximab
[1]
  BBB transmigration activity: markedly decreased
[2]
  Brain metastasis-free survival: prolonged
[3]
  Brain metastasis-free survival: prolonged

From patent US20100029748A1, “Metastasis Promoting Genes and Proteins” (SLOAN-KETTERING INSTITUTE FOR CANCER RESEARCH, priority 2008, published 2010)
